From ChEMBL document CHEMBL1938343, “Lead optimisation of selective non-zinc binding inhibitors of MMP13. Part 2” (Bioorg Med Chem Lett, 2012)

Sequences of proteins named here, by UniProt entry; tags and fusion partners are left off.
UniProt P05177, whole entry: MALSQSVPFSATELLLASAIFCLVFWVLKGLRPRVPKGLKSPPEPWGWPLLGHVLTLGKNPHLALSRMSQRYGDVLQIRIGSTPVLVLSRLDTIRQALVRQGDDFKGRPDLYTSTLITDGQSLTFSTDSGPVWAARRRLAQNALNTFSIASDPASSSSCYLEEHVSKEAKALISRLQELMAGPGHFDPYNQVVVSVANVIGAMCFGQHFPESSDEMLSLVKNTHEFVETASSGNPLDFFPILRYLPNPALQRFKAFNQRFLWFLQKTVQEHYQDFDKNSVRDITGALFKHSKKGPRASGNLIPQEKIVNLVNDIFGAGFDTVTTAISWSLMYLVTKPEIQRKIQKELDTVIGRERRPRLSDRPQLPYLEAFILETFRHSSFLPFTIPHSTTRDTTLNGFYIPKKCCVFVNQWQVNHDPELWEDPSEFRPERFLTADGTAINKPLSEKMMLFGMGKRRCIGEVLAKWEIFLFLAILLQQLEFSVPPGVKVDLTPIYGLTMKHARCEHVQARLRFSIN

Columns and labels:
Cytochrome P450 1A2 = Cytochrome P450 1A2 (Homo sapiens, UniProt P05177); experiment: Inhibition of CYP1A2; format: ADME
Interstitial collagenase = target: T1, Interstitial collagenase (Homo sapiens, UniProt P03956); experiment: Inhibition of MMP1 using Mca-Pro-cyclohexyl-Ala-Gly-Nva-His-Ala- Dap(Dnp)-NH2 as substrate by fluorometric analysis
T1 sequence (P03956 whole entry): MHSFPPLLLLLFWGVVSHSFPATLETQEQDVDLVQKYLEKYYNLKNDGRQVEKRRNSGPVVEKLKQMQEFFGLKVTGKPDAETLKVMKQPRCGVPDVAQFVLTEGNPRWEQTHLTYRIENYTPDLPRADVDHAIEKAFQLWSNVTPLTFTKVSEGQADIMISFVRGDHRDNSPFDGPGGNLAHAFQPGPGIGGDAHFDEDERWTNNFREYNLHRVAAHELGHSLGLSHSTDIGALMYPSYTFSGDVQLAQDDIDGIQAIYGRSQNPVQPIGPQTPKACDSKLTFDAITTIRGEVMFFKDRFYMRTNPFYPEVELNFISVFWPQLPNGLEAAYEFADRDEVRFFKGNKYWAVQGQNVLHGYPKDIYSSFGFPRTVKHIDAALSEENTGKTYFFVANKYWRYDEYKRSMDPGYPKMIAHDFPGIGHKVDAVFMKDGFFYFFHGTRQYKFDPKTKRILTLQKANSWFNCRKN

Collagenase 3 = Collagenase 3 (Homo sapiens, UniProt P45452); experiment: Inhibition of recombinant human MMP13 using Mca-Pro-cyclohexyl-Ala-Gly-Nva-His-Ala- Dap(Dnp)-NH2 as substrate by fluorometric analysis

Row | Compound | IC50 (Cytochrome P450 1A2) | IC50 (Interstitial collagenase) | IC50 (Collagenase 3)
1 | CN1CCC(NC(=O)c2ccc(Oc3ccc(C#C[C@]4(O)CN5CCC4CC5)cc3)cc2)CC1 | > 10 µM | > 10 µM | 
2 | O=C(NC1CCCS(=O)(=O)C1)c1ccc(Oc2ccc(C#C[C@]3(O)CN4CCC3CC4)cc2)cc1 (single isomer, unassigned; diastereomer 1) |  |  | 37 nM
